The values that follow come from patent publication US11306124B2, “Agonist agents of CD47 inducing programmed cell death and their use in the treatments of diseases associated with defects in programmed cell death” (SORBONNE UNIVERSITE, priority 2016, dated 2022).

The data set concerns HCT-116 cells. It is filed as cell-based. To be noted: human, 2 h. How it is done:
2.2.2. Cell Death Analysis by Flow Cytometry
To detect possible apoptotic processes, cells were seeded in 35 mm dishes and cultured in media containing each tested cyclic peptide for 2 hours following procedure A or B.
Procedure B: Peptides were incubated for 2 hours on HCT-116 cells. Superkiller Trail (ALX-201-115C-010) was used as a positive pro-apoptotic control. Cells were analyzed by cytofluorometry using FITC Annexin V apoptosis detection kit with 7-AAD from BIOLEGEND (BLE640922).

Read-outs that look alike come from different tables or passages of the source.

For the compound `CSCC[C@@H]1NC(=O)[C@@H](C(C)C)NC(=O)[C@H](C(C)C)NC(=O)[C@H](Cc2ccc(O)cc2)NC(=O)[C@H](Cc2ccccc2)NC(=O)[C@H](CCCNC(=N)N)NC(=O)[C@H](CO)NC(=O)[C@@H]2CCCN2C(=O)[C@H]2CCCN2C(=O)[C@H](CCC(N)=O)NC(=O)[C@H](Cc2ccc(O)cc2)NC(=O)CNC(=O)[C@H](Cc2ccccc2)NC(=O)[C@H](C(C)C)NC(=O)[C@H](Cc2ccccc2)NC(=O)CNC(=O)[C@H](C)NC(=O)[C@@H](Cc2ccc(O)cc2)NC(=O)[C@H](CCCCN)NC(=O)[C@H](Cc2c[nH]c3ccccc23)NC1=O` [PKTD9, —Y—A—G—F—V—F—G—Y—Q—p—P—S—R—F—Y—V—V—M—W—K—], the “Viable, Mean (%)” value by setting is: (12.5 μM) 82.19%; (25 μM) 79.38%; (50 μM) 70.52%.
